# Reference: patent publication US20240024346A1, “CD73 INHIBITORS AND PHARMACEUTICAL USES THEREOF” (RISEN (SUZHOU) PHARMA TECH CO., LTD., priority 2020, published 2024)
# Amino acid sequences for entries named in this document (tags omitted). Residues count along the entry.
# UniProt P21589, 27-549 limits assumed: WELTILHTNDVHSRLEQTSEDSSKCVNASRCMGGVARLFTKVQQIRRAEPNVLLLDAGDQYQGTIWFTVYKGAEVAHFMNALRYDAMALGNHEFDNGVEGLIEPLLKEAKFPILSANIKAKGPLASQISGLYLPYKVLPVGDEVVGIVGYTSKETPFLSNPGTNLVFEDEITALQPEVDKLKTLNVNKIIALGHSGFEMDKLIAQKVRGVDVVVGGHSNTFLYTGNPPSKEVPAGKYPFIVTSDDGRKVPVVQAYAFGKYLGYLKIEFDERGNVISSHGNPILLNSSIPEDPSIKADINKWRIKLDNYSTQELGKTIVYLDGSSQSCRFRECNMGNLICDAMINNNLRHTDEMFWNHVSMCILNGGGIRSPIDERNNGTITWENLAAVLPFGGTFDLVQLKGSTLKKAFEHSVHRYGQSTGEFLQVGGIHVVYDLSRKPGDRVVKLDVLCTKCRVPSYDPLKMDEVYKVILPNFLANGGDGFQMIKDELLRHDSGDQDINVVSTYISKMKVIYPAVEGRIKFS
# Biological target: CD73 protein (Homo sapiens, UniProt P21589)
# Assay: CD73 enzyme inhibition assay (Malachite Green Phosphate Detection Kit)
# Details: read-out: Potency (IC50 class) in CD73 enzyme assay, Tris-HCl pH 7.3
compound,measurement,value
O=P(O)(O)CP(=O)(O)OC[C@H]1O[C@@H](n2cnc3c(NC45CC6CC(CC(C6)C4)C5)nc(Cl)nc32)[C@H](O)[C@@H]1O,IC50,< 10 nM
